ERp5 inh = inhibitors of ERp5-driven insulin aggregation, primary screen, biochemical, turbidity, absorbance 650 nm, single point | Protein disulfide-isomerase A6 (Homo sapiens), Q15084 | 90 min | inhibition, % at 9.99 µM | 0.05% of 350,000 active;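 active means mean replicate inhibition above about 25%, with every replicate also reaching it, limit read from the data, passing the limit was not always enough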
PDI inh = inhibitors of human PDI, primary screen, biochemical, turbidity, single point, plate reader. PDI insulin aggregation turbidity, A650, 90 min. inhibition, % at 10 µM. Protein disulfide-isomerase (Homo sapiens), P07237. 0.052% of 350,000 active;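 active means mean inhibition across replicates of 30% or more, whatever share of single replicates reach that level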
PglD DTNB = C. jejuni PglD acetyltransferase inhibitors, primary screen, biochemical, DTNB colorimetric, single point | purified PglD enzyme, DTNB colorimetric CoA detection | 0.098% of 360,000 active | inhibition, % at 12.5 µM | UDP-N-acetylbacillosamine N-acetyltransferase PglD (Campylobacter jejuni); in the data active means inhibition above about 16%, passing the limit was not always enough
FGF22 binding = binders of human FGF22 protein, primary screen, FGF22 synaptogenesis inhibitor project, biophysical, thermal shift, single point; Fibroblast growth factor 22 (Homo sapiens), Q9HCT0; activity (Tm shift, normalised), % at 9.99 µM; recombinant FGF22 thermal shift, SYPRO orange fluorescence; percent of sucrose octasulfate shift, DMSO zero; AID 651658, 2012; 1.5% of 340,000 active;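 active means mean Tm shift, scaled 0 neutral to 100 positive control, at about 1.3% or above, every replicate too, limit read from the data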
ARNT TACC3 PPI = disruptors of ARNT/TACC3 protein interaction, primary screen, biochemical, AlphaScreen, single concentration | inhibition, % at 9.99 µM | AlphaScreen His-ARNT PAS-B/GST-TACC3 binding, luminescence; TACC3 fragment carries E629A point mutation | Transforming acidic coiled-coil-containing protein 3 (Homo sapiens), Q9Y6A5 | 0.66% of 390,000 active;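 active means mean inhibition of replicates at least 50% and at least half of replicates each reaching 50%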;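 further: 0% = complete ARNT plus TACC3 wells and 100% = ARNT alone without TACC3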
UUG fidelity = alters start codon recognition fidelity in yeast; S. cerevisiae UUG-firefly luciferase reporter, luminescence/redox ratio; activity score, % at 18.7 µM; actives 0.13% (n = 350,000); AID 602363;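 active = replicate mean at a twofold rise or more, about +100% in these data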;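 also: firefly luciferase made from a UUG start codon reports start codon fidelity; reporter light over untreated wells divided by growth signal over untreated wells; some hits fall short of that in this replicate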
* marks the source's active call; other numbers are inactive results; . = no result. A selection: hits, their analogues and other compounds. The true share with any hit is near 1.9%.

The chains behind the UniProt entries cited, without tags or fusion partners.
Protein disulfide-isomerase A6 (Homo sapiens), Q15084, UniProt Q15084, whole entry, looked up: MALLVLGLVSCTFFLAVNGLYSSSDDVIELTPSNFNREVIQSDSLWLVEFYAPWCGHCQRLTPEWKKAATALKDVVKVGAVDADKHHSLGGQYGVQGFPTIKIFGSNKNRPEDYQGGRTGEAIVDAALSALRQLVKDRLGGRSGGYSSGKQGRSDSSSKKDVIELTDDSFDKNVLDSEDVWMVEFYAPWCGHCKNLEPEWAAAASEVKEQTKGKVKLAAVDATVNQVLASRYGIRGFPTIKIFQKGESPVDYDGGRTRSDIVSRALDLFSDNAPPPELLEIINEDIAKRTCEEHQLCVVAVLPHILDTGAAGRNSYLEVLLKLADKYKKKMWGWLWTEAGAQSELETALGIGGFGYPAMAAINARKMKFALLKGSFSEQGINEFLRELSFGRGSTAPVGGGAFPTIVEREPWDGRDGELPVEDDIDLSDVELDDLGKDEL

entry	smiles	ARNT TACC3 PPI	ERp5 inh	PglD DTNB
1	c1ccc(-c2nc3ccccn3c2NC2CCCC2)nc1	64*	-7	-1
2	COc1ccccc1C(=O)NC(=O)CSc1nncn1C	0	4	-1
3	COc1ccc(Cl)cc1C(=O)NNC(=O)CSc1nncn1C	-1	-4	2
4	O=C(CCNC(=O)c1ccc(Br)cc1)NNC(=O)c1ccccc1	-1	2	-6
5	COc1ccc(Cl)cc1C(=O)NNC(=O)CCNC(=O)c1ccccc1	.	3	5
6	C[C@H]1CN([C@@H](C)CO)C(=O)c2cc(C#CC3CCCCC3)cnc2O[C@@H]1CN(C)Cc1ccncc1	6	-1	2
7	O=C1c2cccc(NCCCNCCO)c2C(=O)c2cccc(NCCCNCCO)c21	49*	-5	.
8	O=C1c2ccccc2C(=O)c2c(NCc3cccnc3)cccc21	6	.	3
9	C/C(N)=C(/C#N)C(=O)CSc1nnc(Nc2c(C)cccc2C)s1	2	7	-2
10	C/C(N)=C(/C#N)C(=O)CSc1cc(C)c2ccccc2n1	-6	4	-8
11	COc1ccccc1NC(=O)c1ccc2c(c1)nnn2C	16	8	-10
12	CO[C@@H]1CN(C)C(=O)c2cc(NC(=O)NC(C)C)ccc2OC[C@@H](C)N(Cc2cncnc2)C[C@H]1C	-3	.	3

entry	PDI inh	FGF22 binding	UUG fidelity
1	-3	0	-21
2	12	0	-26
3	-42	43*	-8
4	-4	43*	-6
5	2	44*	-17
6	.	0	-9
7	-3	0	.
8	-4	.	7
9	10	43*	-17
10	8	43*	-17
11	-5	44*	-17
12	.	.	.

Brought forward from above: 4 entries; new compounds follow.
entry	smiles	ARNT TACC3 PPI	ERp5 inh	PglD DTNB
9	C/C(N)=C(/C#N)C(=O)CSc1nnc(Nc2c(C)cccc2C)s1	2	7	-2
10	C/C(N)=C(/C#N)C(=O)CSc1cc(C)c2ccccc2n1	-6	4	-8
11	COc1ccccc1NC(=O)c1ccc2c(c1)nnn2C	16	8	-10
12	CO[C@@H]1CN(C)C(=O)c2cc(NC(=O)NC(C)C)ccc2OC[C@@H](C)N(Cc2cncnc2)C[C@H]1C	-3	.	3
13	C/C=C/c1ccc2c(c1)O[C@@H](CN(C)Cc1cccnc1)[C@@H](C)CN([C@H](C)CO)S2(=O)=O	-3	0	0
14	C/C=C/c1ccc2c(c1)O[C@@H](CN(C)S(C)(=O)=O)[C@H](C)CN([C@H](C)CO)S2(=O)=O	-2	88*	4
15	C/C=C/c1ccc2c(c1)O[C@H](CN(C)S(C)(=O)=O)[C@H](C)CN([C@@H](C)CO)S2(=O)=O	-10	8	-2
16	C/C=C/c1ccc2c(c1)O[C@H](CN(C)Cc1cncnc1)[C@H](C)CN([C@@H](C)CO)S2(=O)=O	-4	29*	6
17	C/C=C/c1ccc2c(c1)O[C@@H](CN(C)S(C)(=O)=O)[C@H](C)CN([C@@H](C)CO)S2(=O)=O	-4	68*	1
18	COc1ccc(NC(=O)N[C@@H]2CC[C@@H](CC(=O)NC3CCCCC3)O[C@H]2CO)cc1	2	6	5
19	CC(C)NC(=O)N[C@@H]1CC[C@@H](CC(=O)NCc2ccc(Oc3ccccc3)cc2)O[C@H]1CO	45	2	3
20	C[C@@H]1CCCCO[C@H](CN(C)C(=O)CCCN(C)C)[C@@H](C)CN([C@H](C)CO)C(=O)c2cc(NC(=O)Nc3ccc(C(F)(F)F)cc3)ccc2O1	0	.	-5
21	OC(C1=CC(=Cc2ccncc2)c2ccccc21)c1ccncc1 (stereo not given)	8	0	-8
22	OC(c1ccccc1)c1ccncc1 (stereo not given)	2	-6	2
23	CN(C)S(=O)(=O)c1ccc(C(=O)NCCN2C(=O)S/C(=C\c3cccnc3)C2=O)cc1	4	0	.
24	COc1ccc(CN(C)C[C@H]2OCCCC[C@H](C)Oc3ccc(NC(=O)c4ccncc4)cc3C(=O)N([C@@H](C)CO)C[C@H]2C)cc1	-4	0	-3

entry	PDI inh	FGF22 binding	UUG fidelity
9	10	43*	-17
10	8	43*	-17
11	-5	44*	-17
12	.	.	.
13	.	0	-6
14	.	0	13
15	.	0	18
16	.	0	14
17	.	0	14
18	.	0	6
19	.	-1	2
20	.	0	13
21	-2	43*	-9
22	-2	0	-17
23	1	43*	.
24	.	0	-1

Next part.
entry	smiles	ARNT TACC3 PPI	ERp5 inh	PglD DTNB
25	COc1ccc(/C=N/Nc2nc(C(=O)O)cs2)cc1	45*	5	0
26	O=C(COC(=O)c1ccc(Cl)nc1)NCc1ccc(F)cc1	-1	2	-1
27	Nc1cc(C(=O)OCC(=O)NCc2ccc(F)cc2)ccc1Cl	0	0	.
28	CCN=c1scc(-c2ccccc2)n1/N=C/c1ccccn1	61*	.	.
29	C=CCN=c1scc(-c2ccccc2)n1/N=C/c1ccccn1	47*	-7	2
30	C=CCN=c1scc(-c2ccc(F)cc2)n1/N=C/c1ccccn1	31	-5	.
31	C[C@H](CO)N1C[C@H](C)[C@@H](CN(C)C(=O)CN(C)C)Oc2ncc(-c3ccc(C(=O)N(C)C)cc3)cc2C1=O	-7	1	-1
32	Cc1cc(=O)[nH]c(SCc2nc3ccc([N+](=O)[O-])cc3[nH]2)n1	9	3	.
33	CCCc1cc(=O)[nH]c(SCc2nc3ccc([N+](=O)[O-])cc3[nH]2)n1	-4	4	.
34	Cc1ccc(S(=O)(=O)N(C)C[C@@H]2Oc3ccc(NS(=O)(=O)c4ccc(F)cc4)cc3CC(=O)N([C@H](C)CO)C[C@@H]2C)cc1	-6	-6	3
35	Cc1cc(C)n(-c2cccc(C(=O)O)c2)n1	-7	-4	.
36	Cc1nn(-c2cccc(C(=O)O)c2)c(C)c1[N+](=O)[O-]	3	4	.

entry	PDI inh	FGF22 binding	UUG fidelity
25	2	0	-51
26	-6	0	-8
27	-4	44*	.
28	-1	.	.
29	-5	0	-7
30	-14	0	.
31	.	0	4
32	4	0	.
33	1	43*	.
34	.	0	16
35	-2	44*	.
36	0	44*	.

Other results
entry	smiles	ARNT TACC3 PPI	ERp5 inh	PglD DTNB
37	Cc1nn(CC(=O)c2cccc(Cl)c2)c(C)c1[N+](=O)[O-]	-2	-7	.
38	Cc1nn(-c2cccc(C(=O)O)c2)c(C)c1Oc1ccccc1O	-8	.	3
39	Cc1nn(CC(=O)Nc2ccc(Cl)cn2)c(C)c1[N+](=O)[O-]	11	.	6
40	C/C=C/c1ccc([C@@H]2[C@H](CO)N(C(=O)CN(C)C)C23CN(C(=O)C2CCC2)C3)cc1	.	-7	.
41	CN1C(=O)c2cc(NC(=O)C3CC3)ccc2OC[C@H]2O[C@H](CC(=O)NCCN3CCCC3)CC[C@H]21	3	.	3
42	CC(C)(C)C(=O)/C=c1\s/c(=C\c2ccc(-c3ccc([N+](=O)[O-])cc3)o2)c(=O)n1CC(=O)NC(N)=O	-14	5	3
43	O=C(Cc1ccccn1)NCC[C@@H]1CC[C@H](NC(=O)Nc2ccccc2)[C@@H](CO)O1	6	4	-8
44	OCC1(Cc2ccc(Cl)cc2)CCN(Cc2ccc3nsnc3c2)CC1	2	-9	-3

entry	PDI inh	FGF22 binding	UUG fidelity
37	2	43*	.
38	4	.	-6
39	7	.	1
40	.	0	.
41	.	0	16
42	6	44*	27
43	.	0	20
44	2	0	-15

Bioassay records deposited in PubChem BioAssay by Broad Institute.
